These results are taken from patent EP4744648A1, “LIPOPEPTIDE-CONTAINING FAT-DISSOLVING PRODUCT, AND PREPARATION METHOD THEREFOR AND USE THEREOF” (Bloomage Biotechnology Corporation Limited, priority 2023, dated 2024).

The test system of this data set is Female Kunming mice. Briefly: Animal experiment comparing surfactin-C14 and surfactin-C15: subcutaneous injection in right inguinal region, four administrations. The note with it: 200 µL s.c.

Take surfactin-C15 [HXRZ-C]: where the note is “1 mg/mL (low-dose)”, the “Incidence of local adverse reactions, First administration” value (“Incidence … First administration” for short) was found to be 0.00%; the “Incidence of local adverse reactions, Fourth administration” value (“Incidence … Fourth administration” for short) was found to be 0.00%; the “Incidence of local adverse reactions, Second administration” value (from here on “Incidence … Second administration”) came to 14.29%; the “Incidence of local adverse reactions, Third administration” value (from here on “Incidence … Third administration”) was 0.00%. In addition, under “5 mg/mL (medium-dose)”, the “Incidence … First administration” value was found to be 14.29%; the “Incidence … Fourth administration” value was 20.00%; the “Incidence … Second administration” value is reported as 28.57%; the “Incidence … Third administration” value is 0.00%. For the same substance, for the setting “10 mg/mL”, the “Incidence … Fourth administration” value was 40.00%; the “Incidence … Second administration” value turned out to be 28.57%; the “Incidence … Third administration” value is 20.00%. Besides, the “Incidence … First administration” value (10 mg/mL, percentage of mice with abnormalities at the administration site) stood at 42.86%.
